# In patent US8486981B2, “Selective ligands for the dopamine 3 (D3) receptor and methods of using the same” (The Regents of the University of Michigan, priority 2011, dated 2013):
# The chains behind the UniProt entries cited, without tags or fusion partners.
# UniProt P19020, whole entry: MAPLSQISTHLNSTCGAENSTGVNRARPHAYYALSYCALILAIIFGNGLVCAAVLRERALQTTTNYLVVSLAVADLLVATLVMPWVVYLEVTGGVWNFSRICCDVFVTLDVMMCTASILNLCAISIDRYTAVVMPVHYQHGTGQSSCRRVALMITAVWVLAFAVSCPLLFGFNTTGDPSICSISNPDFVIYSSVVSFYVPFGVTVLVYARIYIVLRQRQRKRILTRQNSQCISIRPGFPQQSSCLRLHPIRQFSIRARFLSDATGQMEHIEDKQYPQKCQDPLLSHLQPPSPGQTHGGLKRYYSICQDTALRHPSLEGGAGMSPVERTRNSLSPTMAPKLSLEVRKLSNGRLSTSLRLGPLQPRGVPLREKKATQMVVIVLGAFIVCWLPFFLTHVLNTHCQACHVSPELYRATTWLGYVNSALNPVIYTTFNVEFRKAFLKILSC
# Target: D3 receptor (Rattus norvegicus, UniProt P19020)
# Assay: Induction of yawning behavior in rats
# Format: in vivo
compound,measurement,value
CCCN(CC[C@H]1CC[C@H](NC(=O)/C=C/c2ccccc2)CC1)[C@H]1CCc2nc(N)sc2C1,Activity in in vivo functional assays in rats,only active at very high doses
